The numbers were not newly measured in patent US10159670B2, “Methods of diagnosing and treating motor neuron diseases and other cellular stress-related diseases” (priority 2012, dated 2018), which cites them from elsewhere.

One data set concerns SOD1G93A mice. The settings on record: cited from earlier work.
For a further data set, the system named is ALS patients. The settings on record: several clinical trials; cited from earlier work.

With `Nc1nc2ccc(OC(F)(F)F)cc2s1` [Riluzole], in the data set on SOD1G93A mice, the survival benefit entry is “lacks survival benefit”. For the same compound, the “efficacy for the survival of ALS patients” value with ALS patients is “only slight efficacy”.
